The list shows a part of the results, in another mix than the full data. Calls of active or inactive are those of the source.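 How the source made its calls: active means inhibition above the screen-wide mean plus 3 SD, computed separately per campaign (cut at about 16% in these data); inactive means the rest.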
The compounds below were run on Heat shock protein HSP 90 (rabbit reticulocyte lysate; luciferase refolding) (assay: HSP90 inhibitors, primary screen, cell lysate, luminescence (AID 1789;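 further: 0% = DMSO wells and 100% = 60 µM geldanamycin wells; inhibitors lower the luminescence because luciferase stays unfolded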)). Details: 3 h, at 5.6 µM, hits give high values.
In the case of `O=[As](O)(c1ccc(O)cc1)c1ccccc1O`, the inhibition is reported as inactive: 11.4%.

Reference: PubChem BioAssay AID1789 (The Scripps Research Institute Molecular Screening Center, 2009)
